The record followed here is US8236987B2, “Selective estrogen receptor modulator compositions and methods for treatment of disease” (The Regents of the University of California, priority 2007, dated 2012).

By UniProt entry, the sequences of proteins in these tests, tags left out.
UniProt P03372, whole entry: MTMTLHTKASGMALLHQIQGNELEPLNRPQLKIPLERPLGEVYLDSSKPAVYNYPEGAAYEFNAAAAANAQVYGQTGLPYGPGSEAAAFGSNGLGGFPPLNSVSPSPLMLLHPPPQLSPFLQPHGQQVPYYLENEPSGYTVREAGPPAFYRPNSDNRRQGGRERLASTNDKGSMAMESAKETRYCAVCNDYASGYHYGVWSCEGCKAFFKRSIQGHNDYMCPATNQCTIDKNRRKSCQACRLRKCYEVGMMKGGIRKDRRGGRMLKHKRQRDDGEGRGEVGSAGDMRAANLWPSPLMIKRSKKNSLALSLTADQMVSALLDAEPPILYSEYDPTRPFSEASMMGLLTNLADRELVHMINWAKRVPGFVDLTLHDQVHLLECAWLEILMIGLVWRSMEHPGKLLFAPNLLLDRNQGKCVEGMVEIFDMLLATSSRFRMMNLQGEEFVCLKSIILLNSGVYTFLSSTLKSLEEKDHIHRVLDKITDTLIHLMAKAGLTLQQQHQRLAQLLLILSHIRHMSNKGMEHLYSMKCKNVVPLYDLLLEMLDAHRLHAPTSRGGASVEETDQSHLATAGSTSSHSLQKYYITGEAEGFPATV

For the assay, the target named is full length (ER)α (Homo sapiens, UniProt P03372). As to the kind of experiment: Estrogen receptor binding assay (spin column, [3H]estradiol competition), (ER)α. To be noted: percentage of the potency of 17β-estradiol (IC50 estradiol / IC50 ligand x 100); 3 nM [3H]estradiol, 15 nM receptor, 4° C. overnight.

Molecules are shown by their SMILES.

Take `CC/C(=C(\c1ccccc1)c1ccc(/C=C/C(=O)O)cc1)c1ccccc1` [GW-5638]: the “Relative binding affinity (ER)α” value was 5%.
